# From US20120157379A1, “Gastric Inhibitory Peptide Variants and Their Uses” (priority 2009, published 2012)
# Assays:
# [1] = administered intravenously in normal subjects and diabetic patients; cited from earlier work
# [2] = Resistance to serum degradation: peptides incubated with human serum at 37 C, then tested for receptor activation
# Procedure: Vector, transfection, and receptor-activation assay. […] The treated peptides were frozen at −80 C before testing with transfected cells. Receptor-activation activities were assayed based on cAMP production in transfected cells, and were performed as described44. The receptor-activation results were analyzed using the GraphPad Prism 5 package.
structure (smiles),measurement,setting,value
"CC[C@H](C)[C@H](NC(=O)[C@H](CO)NC(=O)[C@H](Cc1ccc(O)cc1)NC(=O)[C@H](CC(=O)O)NC(=O)[C@H](CO)NC(=O)[C@@H](NC(=O)[C@H](Cc1ccccc1)NC(=O)[C@@H](NC(=O)CNC(=O)[C@H](CCC(=O)O)NC(=O)[C@H](C)NC(=O)[C@@H](N)Cc1ccc(O)cc1)[C@@H](C)O)[C@@H](C)CC)C(=O)N[C@@H](C)C(=O)N[C@@H](CCSC)C(=O)N[C@@H](CC(=O)O)C(=O)N[C@@H](CCCCN)C(=O)N[C@H](C(=O)N[C@@H](Cc1c[nH]cn1)C(=O)N[C@@H](CCC(N)=O)C(=O)N[C@@H](CCC(N)=O)C(=O)N[C@@H](CC(=O)O)C(=O)N[C@@H](Cc1ccccc1)C(=O)N[C@H](C(=O)N[C@@H](CC(N)=O)C(=O)N[C@@H](Cc1c[nH]c2ccccc12)C(=O)N[C@@H](CC(C)C)C(=O)N[C@@H](CC(C)C)C(=O)N[C@@H](C)C(=O)N[C@@H](CCC(N)=O)C(=O)N[C@@H](CCCCN)C(=O)NCC(=O)N[C@@H](CCCCN)C(=O)N[C@@H](CCCCN)C(=O)N[C@@H](CC(N)=O)C(=O)N[C@@H](CC(=O)O)C(=O)N[C@@H](Cc1c[nH]c2ccccc12)C(=O)N[C@@H](CCCCN)C(=O)N[C@@H](Cc1c[nH]cn1)C(=O)N[C@@H](CC(N)=O)C(=O)N[C@H](C(=O)N[C@H](C(=O)N[C@@H](CCC(N)=O)C(=O)O)[C@@H](C)O)[C@@H](C)CC)C(C)C)[C@@H](C)CC [GIP, Gastric inhibitory polypeptide, reference compound]",plasma half-life (t1/2),[1],5 to 7 min
same,capability to stimulate cAMP production after serum incubation as compared to GIP55G and GIP55S,[2]; after human serum incubation,significantly reduced
same,slope of changes in bioactivity (EC50 vs length of incubation) compared with GIP55G,"[2]; pooled human serum, P=0.0023",significantly steeper
